The numbers were not newly measured in patent US20260382601A1, “USE OF CYP3A4/5 INDUCERS IN TREATING OR ALLEVIATING PERIPHERAL NEUROPATHY” (published 2026), which cites them from elsewhere.

Read-outs that look alike come from different tables or passages of the source.

One data set concerns CYP3A. Particulars: literature 16.
Another data set deals with CYP3A4/5. Particulars: literature 15.
The subject of data set [1] is peripheral neuropathy caused by anticancer treatments. Particulars: clinical trials; literature 8.
A further data set has as its system peripheral nerves. Particulars: clinically demonstrated; literature 4.
Another data set concerns P-glycoprotein (P-gp). The following applies: in addition to regulating CYP3A.

As for `CC[C@H](C)[C@@H]([C@@H](CC(=O)N1CCC[C@H]1[C@H](OC)[C@@H](C)C(=O)N[C@H](C)[C@@H](O)c1ccccc1)OC)N(C)C(=O)[C@@H](NC(=O)[C@@H](NC)C(C)C)C(C)C`, the “exposure amount of MMAE” value is recorded as “high” with CYP3A (ketoconazole group) and “low” in the data set with CYP3A (rifampicin group). In the data set on CYP3A4/5, the “clearance route of MMAE” value was “primarily occurs through CYP3A4/5-mediated metabolic pathways, as well as biliary/fecal excretion, with a minor contribution from renal clearance”.
`NCC1(CC(=O)O)CCCCC1`: the “alleviation of symptoms of peripheral neuropathy caused by anticancer treatments” value (from here on “alleviation”) in data set [1] is on record as “most of the trials failed to alleviate the symptoms of the patients”.
With `CC(=O)O[C@H]1C(=O)[C@@]2(C)[C@H]([C@H](OC(=O)c3ccccc3)[C@]3(O)C[C@H](OC(=O)[C@H](O)[C@@H](NC(=O)c4ccccc4)c4ccccc4)C(C)=C1C3(C)C)[C@]1(OC(C)=O)CO[C@@H]1C[C@@H]2O`, the “toxicity to peripheral nerves” value with peripheral nerves is “can cause toxicity to peripheral nerves”.
With `CO[C@H]1/C=C/O[C@@]2(C)Oc3c(C)c(O)c4c(O)c(c(/C=N/N5CCN(C)CC5)c(O)c4c3C2=O)NC(=O)/C(C)=C\C=C\[C@H](C)[C@H](O)[C@@H](C)[C@@H](O)[C@@H](C)[C@H](OC(C)=O)[C@@H]1C`, the “regulation of P-gp expression” value with P-glycoprotein (P-gp) is listed as “can regulate the expression of P-gp”.
In the case of `CC(C)C[C@H](CN)CC(=O)O`, the “alleviation” value in data set [1] was “most of the trials failed to alleviate the symptoms of the patients”.
On to `CN(C)CCC=C1c2ccccc2CCc2ccccc21`, for which, in data set [1], the “alleviation” value was “most of the trials failed to alleviate the symptoms of the patients”.
